Values of other authors in patent US9541834B2, “Ionic thermal acid generators for low temperature applications” (Rohm and Haas Electronic Materials LLC, priority 2012, dated 2017).

Conditions: pKa of conjugate acid (BH)+ of the base of the TAG, aqueous solution, about room temperature

For “Pyridinium perfluorobutanesulfonate [Pyridinium PFBuS]”, the “pKa (base)” value is given as 5.14.
